Binding of CDR-mutated scFvs to a peptide of the spike HR2 region

Antigen: PDVDLGDISGINAS, a 14-residue peptide of the SARS-CoV-2 spike HR2 region.

The variants keep the light chain, the linker and the frameworks of Ab-14 (scFv order VH, a (GGGGS)3 linker, VL).
VH: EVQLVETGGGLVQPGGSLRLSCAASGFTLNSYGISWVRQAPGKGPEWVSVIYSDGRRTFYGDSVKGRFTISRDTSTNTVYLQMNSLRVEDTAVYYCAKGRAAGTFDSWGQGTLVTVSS
VL: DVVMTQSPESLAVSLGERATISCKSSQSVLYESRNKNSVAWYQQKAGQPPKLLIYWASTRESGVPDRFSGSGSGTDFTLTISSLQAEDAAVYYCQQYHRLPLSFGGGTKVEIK

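The library (AAYL49) carries one to three amino acid substitutions per variant, with no insertions or deletions. AlphaSeq pools MATa yeast showing the antibodies with MATalpha yeast showing the peptide. After mating in shaken culture at 30 °C for 16 h, diploids were selected and their barcode pairs sequenced. A regression on co-assayed BCL2-family reference pairs converts the normalised counts of each replicate to an apparent Kd. Each pool was mated in three replicate cultures.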

Each variant is given by its three heavy chain CDRs, as the data file delimits them; those of the parent are GFTLNSYGIS, VIYSDGRRTFYGDSVK, GRAAGTFDS. The read-out is the apparent dissociation constant on a log10 scale (nM): the lower, the stronger. Replicates are averaged; those with no signal do not enter the mean. "n.d." means that the variant was in the library but no mating with the target was seen in that replicate; the authors take this as a sign of poor binding, and no number exists. Background: pairings of library AAYL49 with three empty control strains gave a value in 15% of cases (median 4.06, 5th percentile 2.83). Values in that range, when seen in few replicates, are hard to tell from nonspecific mating. The control count says in how many pairings with the empty strains this scFv gave a signal, with their mean in brackets. For reference, the parent read 0.65 as the reference entry and 4.11 (one replicate of three) as a member of this library.

| CDR-H1 | CDR-H2 | CDR-H3 | log10 Kd, replicates | log10 Kd (nM), mean | signal with controls |
|---|---|---|---|---|---|
| GCTLNSYGIS | VIYSDGRRTFYGDSVK | YRAAGTFDS | n.d. n.d. n.d. | n.d. | 0/9 |
| GFTLNSYGIS | VHYNDGRRTFYGDSVK | GQAAGTFDS | n.d. n.d. n.d. | n.d. | 0/9 |
| GFTLNSYGIS | VIYSDGRRTFYCDSVK | GNAAGTFDS | 1.24 1.23 1.13 | 1.20 | 2/9 (3.89) |
| GFTLESYGIS | VIYSDGRRNFYGDSVK | GRAVGTFDS | n.d. n.d. n.d. | n.d. | 0/9 |
| GFTLPSYGIV | VIYSDGRRTFYGDSVK | GRAAGTFDS | n.d. n.d. n.d. | n.d. | 2/9 (4.11) |
| GFTLNSYGIS | VIYSDDRMTFYGDSVK | GRAAGTFDS | 4.91 3.93 5.94 | 4.92 | 6/9 (4.71) |
| GFTLNSYGFS | VKYSDGRRTFYGDSVK | GRYAGTFDS | 4.54 5.07 n.d. | 4.81 | 3/9 (4.75) |
| GFTLNSLGIS | VMYSDGRRTFIGDSVK | GRAAGTFDS | n.d. 3.85 n.d. | 3.85 | 3/9 (3.71) |
| GFTLNSYGIS | VIYKDGRRIFPGDSVK | GRAAGTFDS | n.d. 3.77 n.d. | 3.77 | 3/9 (3.66) |
| GFTLNSYGIS | VIYSDGQRTMYGDSVK | GRAACTFDS | 2.03 2.21 2.20 | 2.15 | 3/9 (3.04) |
| GFTLDSYGIS | VIYSDGRRTFYGQSVK | GRAADTFDS | 4.02 n.d. n.d. | 4.02 | 2/9 (3.92) |
| GFTLSSYGIS | VIYSDGRMTFSGDSVK | GRAAGTFDS | n.d. n.d. 4.20 | 4.20 | 2/9 (3.50) |
| EFTLNSHGIS | VIYSDGRRTFYGWSVK | GRAAGTFDS | 5.40 4.57 4.80 | 4.92 | 1/9 (4.87) |
| GFTLNSYGIS | VIYSDGRRTPYGDSVK | GRAAGTFDW | n.d. n.d. n.d. | n.d. | 0/9 |
| GFTLNSYGIS | VIYSDGRRTFYGDSVK | GRAAGTFES | 0.04 1.64 n.d. | 0.84 | 1/9 (2.66) |
| GFTLNSDGIS | VIYSDGRRTFSGDSVF | GRAAGTFDS | n.d. n.d. 4.02 | 4.02 | 2/9 (3.90) |
| GFTLNSYGIS | VIYFDGRRTFYGDHLK | GRAAGTFDS | 5.62 4.86 5.52 | 5.34 | 2/9 (3.59) |
| PFTLNSYFIS | VIYSDGRRTFYGDSVV | GRAAGTFDS | 4.84 n.d. n.d. | 4.84 | 2/9 (4.82) |
| TFTLNSYGPS | VIYSDGRRTFYGLSVK | GRAAGTFDS | n.d. n.d. n.d. | n.d. | 0/9 |
| GFTLNSYWIS | VIYSDGRRTFYGDSVK | RRAAGTFDQ | n.d. n.d. n.d. | n.d. | 0/9 |
| GFTLNSYGIS | VIYSDCRRTFGGDSVK | GRAAGTFDS | n.d. n.d. n.d. | n.d. | 1/9 (4.44) |
| EFTLNSYGIT | VIYSDIRRTFYGDSVK | GRAAGTFDS | n.d. n.d. n.d. | n.d. | 0/9 |
| GFTLNSYGIS | VIYSDGRRRFYGDSVK | GRPAGTFDS | 4.56 3.91 n.d. | 4.24 | 3/9 (3.28) |
| GFTLNSYGIS | VIYSDRRGTFYGDMVK | GRAAGTFDS | n.d. n.d. n.d. | n.d. | 0/9 |
| GFTLNSYGIS | VIYSDGRRTFYGVSVK | GRAAGDFDS | n.d. n.d. n.d. | n.d. | 1/9 (3.23) |
| GFTLNSYGIG | PIYSDGRRTFYVDSVK | GRAAGTFDS | n.d. n.d. n.d. | n.d. | 0/9 |
| GFTLNSYFIS | VIASDGRHTFYGDSVK | GRAAGTFDS | 3.90 3.03 3.16 | 3.37 | 4/9 (3.91) |
| GFTLSSRGMS | VIYSDGRRTFYGDSVK | GRAAGTFDS | n.d. n.d. n.d. | n.d. | 1/9 (3.22) |
| GFTENSYGIS | VIYSDGRRTFYTDSVK | GRAAGTFDS | n.d. n.d. n.d. | n.d. | 0/9 |
| GFTLNSGGIS | VIYSDGNRTFYGDSVK | GRAAGTFDS | n.d. n.d. n.d. | n.d. | 0/9 |
| GFTLNSYGIS | VQYSDGRRTWYGDSVK | GRAAGCFDS | n.d. n.d. n.d. | n.d. | 2/9 (4.29) |
| GFELNSYGIS | VIYSDGRRTFYGDLVK | GRAAGTFES | 4.58 n.d. n.d. | 4.58 | 0/9 |
| GFTSESYGIS | VIQSDGRRTFYGDSVK | GRAAGTFDS | 4.98 n.d. 3.92 | 4.45 | 3/9 (3.74) |
| GFTLNDYGIS | VIYSDGRRTFYGDSVK | GRYAGTFDS | -0.07 0.25 0.02 | 0.06 | 2/9 (3.72) |
| GFTLNSYGIS | VIYSDGRRAFYGDSVK | GRTAGTVDS | n.d. n.d. n.d. | n.d. | 0/9 |
| GNTLNSYMIS | VIYRDGRRTFYGDSVK | GRAAGTFDS | n.d. n.d. 5.16 | 5.16 | 0/9 |
| GFTLNSYGIS | HIYSDTRRTFYGDSVW | GRAAGTFDS | n.d. 4.79 n.d. | 4.79 | 1/9 (5.48) |
| GFTLNSYGIQ | VIYSDARRTFYGDSVK | GRAAGTFDS | n.d. n.d. n.d. | n.d. | 1/9 (3.20) |
| GFTLNSYGIS | QIYSDGRRTNYGDSVK | GRAAGTFDS | n.d. n.d. n.d. | n.d. | 0/9 |
| GFTLNSYGIS | VIYSDWRRTFYIDSVK | VRAAGTFDS | n.d. n.d. n.d. | n.d. | 0/9 |
| GFTLNSYGIS | VIYSDGRQTFYGDSVK | GRAAGTFDS | n.d. n.d. n.d. | n.d. | 4/9 (3.84) |

Top 6 of the variants detected in all replicates, tightest first:

| CDR-H1 | CDR-H2 | CDR-H3 | log10 Kd, replicates | log10 Kd (nM), mean | signal with controls |
|---|---|---|---|---|---|
| GFTLNDYGIS | VIYSDGRRTFYGDSVK | GRYAGTFDS | -0.07 0.25 0.02 | 0.06 | 2/9 (3.72) |
| GFTLNSYGIS | VIYSDGRRTFYCDSVK | GNAAGTFDS | 1.24 1.23 1.13 | 1.20 | 2/9 (3.89) |
| GFTLNSYGIS | VIYSDGQRTMYGDSVK | GRAACTFDS | 2.03 2.21 2.20 | 2.15 | 3/9 (3.04) |
| GFTLNSYFIS | VIASDGRHTFYGDSVK | GRAAGTFDS | 3.90 3.03 3.16 | 3.37 | 4/9 (3.91) |
| EFTLNSHGIS | VIYSDGRRTFYGWSVK | GRAAGTFDS | 5.40 4.57 4.80 | 4.92 | 1/9 (4.87) |
| GFTLNSYGIS | VIYSDDRMTFYGDSVK | GRAAGTFDS | 4.91 3.93 5.94 | 4.92 | 6/9 (4.71) |

From the AlphaSeq antibody data of Engelhart et al. 2022 (doi:10.1038/s41597-022-01779-4), copy in the FLAb collection.